PMC9861714, “Biological Evaluation of Valeriana Extracts from Argentina with Potent Cholinesterase Inhibition for the Treatment of Neurodegenerative Disorders and Their Comorbidities—The Case of Valeriana carnosa Sm. (Caprifoliaceae) Studied in Mice” (Pharmaceuticals, 2023)

Chains of the proteins cited; added tags and fusions are not shown.
UniProt P21397, whole entry: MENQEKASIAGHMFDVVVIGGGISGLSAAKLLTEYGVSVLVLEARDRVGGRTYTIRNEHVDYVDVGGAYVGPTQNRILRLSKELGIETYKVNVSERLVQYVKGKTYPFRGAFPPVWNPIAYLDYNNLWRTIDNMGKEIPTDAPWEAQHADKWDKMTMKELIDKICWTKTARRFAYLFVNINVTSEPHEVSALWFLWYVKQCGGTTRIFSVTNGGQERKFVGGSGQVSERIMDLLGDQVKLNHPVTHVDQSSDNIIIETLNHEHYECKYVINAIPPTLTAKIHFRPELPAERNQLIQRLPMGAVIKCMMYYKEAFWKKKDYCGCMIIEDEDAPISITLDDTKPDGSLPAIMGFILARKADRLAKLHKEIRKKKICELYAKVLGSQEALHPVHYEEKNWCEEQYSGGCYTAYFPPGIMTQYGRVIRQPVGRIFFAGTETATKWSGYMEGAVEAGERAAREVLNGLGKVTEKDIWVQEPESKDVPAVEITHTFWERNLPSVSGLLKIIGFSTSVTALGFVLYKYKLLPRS

Target: T1, hMAO-A (Homo sapiens, UniProt P21397)
T1 construct: gene MAOA

`C#CCN(C)Cc1ccccc1` [Pargyline] showed an IC50 of 3.97 ± 0.275 µM.
